Results taken from ChEMBL document CHEMBL1150386 (J Med Chem, 2008).

Species on record: Homo sapiens
Test: Ratio of Ki for human recombinant AChE to Ki for human recombinant BuChE
CN(CCCNc1c2c(nc3ccccc13)CCCC2)CCCNc1c2c(nc3ccccc13)CCCC2 gave a Ratio Ki of 0.04.
Molecule OCCN(CCCCNc1c2c(nc3ccccc13)CCCC2)CCCNc1c2c(nc3ccccc13)CCCC2 has a Ratio Ki of 0.1.
In the case of c1ccc2c(NCCCN3CCN(CCCNc4c5c(nc6ccccc46)CCCC5)CC3)c3c(nc2c1)CCCC3, the Ratio Ki is reported as 0.03.
CN(CCCCSc1c2c(nc3ccccc13)CCCC2)CCCNc1c2c(nc3ccccc13)CCCC2 showed a Ratio Ki of 0.46.
c1ccc2c(NCCc3cocc3CCNc3c4c(nc5ccccc35)CCCC4)c3c(nc2c1)CCCC3 was tested, and the Ratio Ki was 1.82.
Work on CCN(CCCCNc1c2c(nc3ccccc13)CCCC2)CCCNc1c2c(nc3ccccc13)CCCC2 yielded a Ratio Ki of 0.37.
With c1ccc2c(NCCCCNCCCSc3c4c(nc5ccccc35)CCCC4)c3c(nc2c1)CCCC3 the Ratio Ki was 3.42.
c1ccc2c(NCCCCCCCCSc3c4c(nc5ccccc35)CCCC4)c3c(nc2c1)CCCC3 gave a Ratio Ki of 16.9.
Cc1cc(CCNc2c3c(nc4ccccc24)CCCC3)cc(CCNc2c3c(nc4ccccc24)CCCC3)c1 was tested, and the Ratio Ki was 1.48.
Work on CC(=O)N(CCCNc1c2c(nc3ccccc13)CCCC2)CCCSc1c2c(nc3ccccc13)CCCC2 yielded a Ratio Ki of 4.27.
For c1ccc2c(NCCc3ccc(CCNc4c5c(nc6ccccc46)CCCC5)cc3)c3c(nc2c1)CCCC3, the Ratio Ki was 0.12.
CC(=O)N(CCCCNc1c2c(nc3ccccc13)CCCC2)CCCSc1c2c(nc3ccccc13)CCCC2 showed a Ratio Ki of 77.
Work on c1cc(CCNc2c3c(nc4ccccc24)CCCC3)cc(CCNc2c3c(nc4ccccc24)CCCC3)c1 yielded a Ratio Ki of 1.86.
With C=CCN(CCCCNc1c2c(nc3ccccc13)CCCC2)CCCNc1c2c(nc3ccccc13)CCCC2 the Ratio Ki was 0.02.
CC(=O)N(CCCCNc1c2c(nc3ccccc13)CCCC2)CCCNc1c2c(nc3ccccc13)CCCC2 gave a Ratio Ki of 0.34.
CN(CCCCNc1c2c(nc3ccccc13)CCCC2)CCCNc1c2c(nc3ccccc13)CCCC2 gave a Ratio Ki of 0.01.
c1cc(CCNc2c3c(nc4ccccc24)CCCC3)nc(CCNc2c3c(nc4ccccc24)CCCC3)c1 gave a Ratio Ki of 0.41.
CC(=O)N(CCCCSc1c2c(nc3ccccc13)CCCC2)CCCNc1c2c(nc3ccccc13)CCCC2 gave a Ratio Ki of 6.96.
